Tests used:
[1] = target: T1, Neutrophil elastase (Homo sapiens) (UniProt P08246); assay: Tested for the rate constant against Human Leukocyte Elastase (HLE) inactivation
T1 sequence (whole entry): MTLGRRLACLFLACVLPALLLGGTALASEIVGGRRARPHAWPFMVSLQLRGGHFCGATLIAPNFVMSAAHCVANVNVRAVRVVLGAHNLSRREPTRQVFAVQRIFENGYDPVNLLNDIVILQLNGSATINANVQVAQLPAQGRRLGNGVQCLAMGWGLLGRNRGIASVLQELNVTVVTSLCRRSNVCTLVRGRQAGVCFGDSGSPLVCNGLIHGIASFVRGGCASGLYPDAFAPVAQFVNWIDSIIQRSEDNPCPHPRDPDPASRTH
In short: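 HLE from human sputum, active-site titrated with MeO-Suc-Ala-Ala-Pro-Val-CH2Cl; 1–3 nM active enzyme. […] Substrate and inhibitor concentrations varied to derive kon and Ki(ss).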

[2] = target: T1, Neutrophil elastase (Homo sapiens); assay: Tested for inhibition of Human Leukocyte Elastase (HLE) in living polymorphonuclear leukocytes; assay type: cell-based; parameters: scale not given: the % may be the effect or the level left
In short: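 Human PMNs from citrated venous blood, 5 × 10^6 cells/mL, exposed to inhibitor (10 μg per mL, in DMSO) for 15 min at 37 °C, then washed three times. Stimulated with cytochalasin B for 5 min, then fMLP for 15 min. Supernatant elastase assayed with N-acetyl-Ala-Ala-Pro-Ala-7-(4-methyl)coumarylamide, 6 h at 25 °C, fluorescence read; DMSO-only controls.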

Row | k on [1] | Activity [2] | Structure (SMILES)
1 | 1.5 M⁻¹ s⁻¹ |  | COCC1=C(C(=O)C(C)(C)C)N2C(=O)[C@H](Cl)C2S(=O)(=O)C1 (stereo partly drawn)
2 | 2.3 M⁻¹ s⁻¹ |  | CC(=O)OCC1=C(C(=O)C(C)(C)C)N2C(=O)[C@H](Cl)C2S(=O)(=O)C1 (stereo partly drawn)
3 | 1.3 M⁻¹ s⁻¹ |  | COC(=O)C1=C(COC(C)=O)CS(=O)(=O)C2[C@@H](Cl)C(=O)N12 (stereo partly drawn)
4 | 2.6 M⁻¹ s⁻¹ |  | CO[C@H]1C(=O)N2C(C(=O)C(C)(C)C)=C(CSc3nnnn3C)[C@@H](Sc3nnnn3C)S(=O)(=O)C12 (stereo partly drawn)
5 | 4700 M⁻¹ s⁻¹ |  | CO[C@H]1C(=O)N2C(C(=O)OC(C)(C)C)=C(C)[C@@H](Sc3ccccn3)S(=O)(=O)C12 (stereo partly drawn)
6 | 1.9 M⁻¹ s⁻¹ |  | CO[C@H]1C(=O)N2C(C(=O)C(C)(C)C)=C(CSc3nnnn3C)CS(=O)(=O)C12 (stereo partly drawn)
7 | 2 M⁻¹ s⁻¹ |  | CO[C@H]1C(=O)N2C(C(=O)OC(C)(C)C)=C(CSc3nnnn3C)CS(=O)(=O)C12 (stereo partly drawn)
8 | 7 M⁻¹ s⁻¹ |  | CO[C@H]1C(=O)N2C(C(=O)C(C)(C)C)=C(C)[C@@H](OC(=O)c3ccc(CSc4nc(=O)c(=O)[nH]n4C)cc3)S(=O)(=O)C12 (stereo partly drawn)
9 | 5.7 M⁻¹ s⁻¹ |  | CC(=O)OCC1=C(C(=O)C(C)(C)C)N2C(=O)[C@H](Cl)C2S(=O)(=O)[C@@H]1Sc1nnnn1C (stereo partly drawn)
10 | 24000 M⁻¹ s⁻¹ |  | CO[C@H]1C(=O)N2C(C(=O)C(C)(C)C)=C(COC(C)=O)CS(=O)(=O)C12 (stereo partly drawn)
11 | 1.5e+06 M⁻¹ s⁻¹ |  | CO[C@H]1C(=O)N2C(C(=O)C(C)(C)C)=C(C)[C@@H](OC(=O)c3ccccc3)S(=O)(=O)C12 (stereo partly drawn)
12 | 5.3 M⁻¹ s⁻¹ | 102% | CO[C@H]1C(=O)N2C(C(=O)C(C)(C)C)=C(C)[C@@H](Sc3nc(=O)c(=O)[nH]n3C)S(=O)(=O)C12 (stereo partly drawn)
13 | 23000 M⁻¹ s⁻¹ |  | CO[C@H]1C(=O)N2C(C(=O)C(C)(C)C)=C(CSc3ccccn3)CS(=O)(=O)C12 (stereo partly drawn)
14 | 1.5 M⁻¹ s⁻¹ |  | CC(=O)OCC1=C(C(=O)c2ccccc2)N2C(=O)[C@H](Cl)C2S(=O)(=O)C1 (stereo partly drawn)
15 | 47000 M⁻¹ s⁻¹ |  | CO[C@H]1C(=O)N2C(C(=O)C(C)(C)C)=C(C)[C@@H](Sc3nnc(C)s3)S(=O)(=O)C12 (stereo partly drawn)
16 | 7.3 M⁻¹ s⁻¹ |  | CCC(=O)C1=C(COC(C)=O)CS(=O)(=O)C2[C@@H](Cl)C(=O)N12 (stereo partly drawn)
17 | 1 M⁻¹ s⁻¹ | 100% | CO[C@H]1C(=O)N2C(C(=O)C(C)(C)C)=C(C)[C@@H](Sc3nnnn3C)S(=O)(=O)C12 (stereo partly drawn)
18 | 1.3 M⁻¹ s⁻¹ |  | CC1=C(C(=O)c2ccccc2)N2C(=O)[C@H](Cl)C2S(=O)(=O)[C@@H]1Sc1nnnn1C (stereo partly drawn)

Row | k on [1] | Activity [2] | Structure (SMILES)
19 | 4.5 M⁻¹ s⁻¹ | 70% | CO[C@H]1C(=O)N2C(C(=O)C(C)(C)C)=C(CSc3nc(=O)c(=O)[nH]n3C)CS(=O)(=O)C12 (stereo partly drawn)
20 | 1.8 M⁻¹ s⁻¹ |  | CO[C@H]1C(=O)N2C(C(=O)c3ccccc3)=C(CSc3nnnn3C)CS(=O)(=O)C12 (stereo partly drawn)
21 | 2.2 M⁻¹ s⁻¹ |  | CO[C@H]1C(=O)N2C(C(=O)c3ccccc3)=C(CSc3nnnn3C)[C@@H](Sc3nnnn3C)S(=O)(=O)C12 (stereo partly drawn)
22 | > 2e+06 M⁻¹ s⁻¹ |  | CO[C@H]1C(=O)N2C(C(=O)C(C)(C)C)=C(C)[C@@H](OC(=O)c3ccc4ccccc4c3)S(=O)(=O)C12 (stereo partly drawn)
23 | 4.9 M⁻¹ s⁻¹ |  | CC(=O)OCC1=C(C(=O)Cc2ccccc2)N2C(=O)[C@H](Cl)C2S(=O)(=O)C1 (stereo partly drawn)
24 | > 2 M⁻¹ s⁻¹ |  | CO[C@H]1C(=O)N2C(C(=O)C(C)(C)C)=C(CSc3nnnn3C)[C@@H](OC(=O)c3ccccc3)S(=O)(=O)C12 (stereo partly drawn)
25 | 900 M⁻¹ s⁻¹ |  | CO[C@H]1C(=O)N2C(C(=O)OC(C)(C)C)=C(CSc3ccccn3)CS(=O)(=O)C12 (stereo partly drawn)
26 | 1.2 M⁻¹ s⁻¹ |  | Cn1nnnc1SCC1=C(C(=O)C(C)(C)C)N2C(=O)[C@H](Cl)C2S(=O)(=O)C1 (stereo partly drawn)
27 | 82000 M⁻¹ s⁻¹ |  | CO[C@H]1C(=O)N2C(C(=O)C(C)(C)C)=C(C)[C@@H](Sc3ccccn3)S(=O)(=O)C12 (stereo partly drawn)
28 | 8 M⁻¹ s⁻¹ |  | CC1=C(C(=O)c2ccccc2)N2C(=O)[C@H](Cl)C2S(=O)(=O)C1 (stereo partly drawn)
29 | 1 M⁻¹ s⁻¹ |  | CC1=C(C(=O)C(C)(C)C)N2C(=O)[C@H](Cl)C2S(=O)(=O)[C@@H]1Sc1nnnn1C (stereo partly drawn)
30 |  | 98% | CO[C@H]1C(=O)N2C(C(=O)N3CCCC3)=C(CSc3nc(=O)c(=O)[nH]n3C)CS(=O)(=O)C12 (stereo partly drawn)
31 | 2.1 M⁻¹ s⁻¹ |  | CC(=O)CCC1=C(COC(C)=O)CS(=O)(=O)C2[C@@H](Cl)C(=O)N12 (stereo partly drawn)
32 | 2.3 M⁻¹ s⁻¹ |  | CO[C@H]1C(=O)N2C(C(=O)c3ccccc3)=C(C)[C@@H](Sc3nnnn3C)S(=O)(=O)C12 (stereo partly drawn)
33 | 2.1 M⁻¹ s⁻¹ |  | CC1=C(C(=O)C(C)(C)C)N2C(=O)[C@H](Cl)C2S(=O)(=O)C1 (stereo partly drawn)
34 | 2 M⁻¹ s⁻¹ |  | CO[C@H]1C(=O)N2C(C(=O)C(C)(C)C)=C(COC(C)=O)[C@@H](Sc3nnnn3C)S(=O)(=O)C12 (stereo partly drawn)
35 | 280000 M⁻¹ s⁻¹ |  | CO[C@H]1C(=O)N2C(C(=O)C(C)(C)C)=C(C)[C@@H](S(=O)(=O)c3ccccc3)S(=O)(=O)C12 (stereo partly drawn)

Reference: ChEMBL document CHEMBL1127413, “Cephem sulfones as inactivators of human leukocyte elastase. 5. 7 alpha-Methoxy- and 7 alpha-chloro-1,1-dioxocephem 4-ketones” (J Med Chem, 1994)
